Here are results for one molecule from ChEMBL document CHEMBL1135158, “Pyrrolo[2,3-d]pyrimidines containing diverse N-7 substituents as potent inhibitors of Lck” (Bioorg Med Chem Lett, 2002).

The test addresses T1, Tyrosine-protein kinase ZAP-70 (Homo sapiens, UniProt P43403).
T1 sequence (P43403 whole entry): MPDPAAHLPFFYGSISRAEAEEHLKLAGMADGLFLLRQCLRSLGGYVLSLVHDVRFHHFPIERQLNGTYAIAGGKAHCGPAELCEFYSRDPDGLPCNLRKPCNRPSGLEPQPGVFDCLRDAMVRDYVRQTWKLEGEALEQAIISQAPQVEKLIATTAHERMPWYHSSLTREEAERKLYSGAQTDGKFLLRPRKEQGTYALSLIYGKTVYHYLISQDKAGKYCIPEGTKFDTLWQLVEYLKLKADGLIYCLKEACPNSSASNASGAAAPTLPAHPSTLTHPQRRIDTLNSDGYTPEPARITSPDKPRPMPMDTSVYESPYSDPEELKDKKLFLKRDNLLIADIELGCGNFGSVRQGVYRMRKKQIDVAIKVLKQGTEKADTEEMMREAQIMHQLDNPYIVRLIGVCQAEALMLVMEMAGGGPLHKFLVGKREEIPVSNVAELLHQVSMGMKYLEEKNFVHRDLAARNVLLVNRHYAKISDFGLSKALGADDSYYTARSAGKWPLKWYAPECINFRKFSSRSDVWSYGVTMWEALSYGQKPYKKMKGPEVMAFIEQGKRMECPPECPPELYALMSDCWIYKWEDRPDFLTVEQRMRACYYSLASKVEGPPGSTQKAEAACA
As to the kind of experiment: Inhibition of Zeta-chain (TCR) associated protein kinase 70kDa, Zap70 (Inactive at 1 mM ATP).

The term IC50 denotes the midpoint of a concentration-inhibition curve. Read a high IC50 as weaker potency in that assay. In the case of `CN1CCN([C@H]2CC[C@@H](n3cc(-c4ccc(Oc5ccccc5)cc4)c4c(N)ncnc43)CC2)CC1`, the IC50 was over 20 µM.
